# In patent US7745001B2, “Synthesis of nanoassemblies containing luminescent quantum dots and magnetic nanoparticles” (University of New Orleans Research and Technology …, priority 2004, dated 2010):
# Biological target: concanavalin A (Con A) (Canavalia ensiformis, UniProt P02866)
# Settings: 15 mg free R-D-glucose added to the solution
smiles,measurement,value
O=C[C@H](O)[C@@H](O)[C@H](O)[C@H](O)CO [R-D-glucose],effect of free sugar on Con A initiated aggregation of glyconanospheres,aggregation of glyconanospheres was prevented
